Reference: patent US6391897B2, “Biphenyl oxo-acetic acids useful in the treatment of insulin resistance and hyperglycemia” (American Home Products Corporation, priority 1998, dated 2002)

Protein sequences, listed by entry. Tags and fused reporters are not part of them. Lines headed by an entry give the natural chain unless they say otherwise; changes in a name come on top.
UniProt P18031: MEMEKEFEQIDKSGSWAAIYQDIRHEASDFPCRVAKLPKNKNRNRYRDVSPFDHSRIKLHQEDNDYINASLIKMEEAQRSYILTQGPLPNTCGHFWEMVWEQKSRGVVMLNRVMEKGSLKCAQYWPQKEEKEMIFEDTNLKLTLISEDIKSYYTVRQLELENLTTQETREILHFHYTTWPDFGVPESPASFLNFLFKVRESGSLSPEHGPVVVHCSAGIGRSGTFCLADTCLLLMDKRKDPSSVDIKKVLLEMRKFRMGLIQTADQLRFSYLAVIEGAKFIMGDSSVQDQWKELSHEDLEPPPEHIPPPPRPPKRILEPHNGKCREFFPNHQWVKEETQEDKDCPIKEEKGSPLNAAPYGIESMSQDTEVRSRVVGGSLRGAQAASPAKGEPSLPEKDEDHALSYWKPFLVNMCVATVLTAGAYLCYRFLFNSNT

Tests used:
[1] = system: rat hepatic microsomal PTPases; experiment: Inhibition of tri-phosphorylated insulin receptor dodecaphosphopeptide dephosphorylation by rat hepatic PTPases (malachite green); assay type: biochemical; details: rat hepatic microsomal PTPase activity; compound at 50 μM
[2] = target: Human recombinant PTP1B (Homo sapiens, UniProt P18031); experiment: Inhibition of tri-phosphorylated insulin receptor dodecaphosphopeptide dephosphorylation by hPTP1B (malachite green); assay type: biochemical; details: for percent of phosphatase control (change) at 2.5 uM: compound at 2.5 uM

With “2-(4′-Benzofuran-3-yl-biphenyl-4-yloxy)-3-phenyl-propionic acid” the “% Change from Control” value [1] was −70% and the “percent of phosphatase control (change) at 2.5 uM” value [2] was −47 (2.5 uM) %.

“(2R)-2-4′-(2-Benzyl-benzofuarn-3-yl)-3-nitro-biphenyl-4-yloxy]-3-phenyl-propionic acid” was tested, and the IC50 [2] was 231 nM.

In the case of “(2R)-2-[4′-(2-Benzoyl-benzofuarn-3-yl)-3-nitro-biphenyl-4-yloxy]-3-phenyl-propionic acid”, the IC50 [2] is reported as 788 nM.

“(4′-Benzofuran-3-yl-biphenyl-4-yloxy)-acetic acid” was tested, and the “% Change from Control” value [1] was −11% and the “percent of phosphatase control (change) at 2.5 uM” value [2] was −51 (2.5 uM) %.
